The source of these data is PubChem BioAssay AID624 (Vanderbilt High Throughput Screening Facility, 2007).

By UniProt entry, the sequences of proteins in these tests, tags left out.
UniProt P18825, whole entry, looked up: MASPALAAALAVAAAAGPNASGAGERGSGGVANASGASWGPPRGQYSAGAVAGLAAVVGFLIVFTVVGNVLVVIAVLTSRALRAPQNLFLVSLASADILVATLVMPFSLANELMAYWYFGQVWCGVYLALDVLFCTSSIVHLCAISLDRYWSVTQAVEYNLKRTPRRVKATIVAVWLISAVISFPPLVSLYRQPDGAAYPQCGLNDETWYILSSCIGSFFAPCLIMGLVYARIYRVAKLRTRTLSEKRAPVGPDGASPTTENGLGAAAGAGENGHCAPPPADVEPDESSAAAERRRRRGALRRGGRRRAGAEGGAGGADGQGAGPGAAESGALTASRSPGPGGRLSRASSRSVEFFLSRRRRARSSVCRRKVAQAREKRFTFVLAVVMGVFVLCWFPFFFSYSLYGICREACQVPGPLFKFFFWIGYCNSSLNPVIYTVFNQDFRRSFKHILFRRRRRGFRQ

Each structure is given as a SMILES string. This is a selection; strong and weak results do not stand in their true shares. Calls of active or inactive are those of the source.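 How the source made its calls: active means fluorescence slope after compound addition differing from the mean of all screened samples at 99.7% confidence, in either direction; inactive means the rest.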

For this test, the target named is Alpha-2C adrenergic receptor (Homo sapiens) (UniProt P18825). The experiment in a line: modulators of alpha2C/GIRK thallium flux, primary screen, cell-based, HEK293 alpha2C/GIRK1/2 (AID 624).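 Further: slope of fluorescence ratio to pre-addition baseline per second over 15 to 24 s.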 The note with it: thallium flux BTC fluorescence, at 10 µM, actives lie on both sides.
`O=P(Nc1nccs1)(c1ccccc1)c1ccccc1`: the slope is inactive: 0.00606.
The value for `CCOP1(=S)c2c(C)nn(CCC#N)c2N=C(c2ccccc2F)N1C` (stereo not drawn) was inactive: 0.00323; that for `Cc1ccc(OCC(=O)OC2CN3CCC2CC3)cc1` (stereo not drawn) was inactive: 0.00533.
